Here are results for three substances from paper doi:10.1101/2023.08.25.554718.

The target of series [1] is CX3CR1 nucleosome containing ^3AH2A (human) (UniProt P04908). The experiment in a line: native gel or EMSA; 0.5 μM nucleosome mixed with purified protein at different concentrations, 30 min, room temperature, 20 mM HEPES pH 7.3, 150 mM NaCl, 0.5 mM TCEP; 4% or 5% acrylamide gel in 0.2 x TBE at 4 °C; apparent Kd from a fit to the Hill equation.
Series [2] deals with CX3CR1 nucleosome (human core histones, wild type) (human) (UniProt P04908). The series is described as above.
Another series concerns the target PU.1 full-length (mouse) (UniProt P17433). The experiment in a line: EMSA. Particulars: EMSA: 20 mM HEPES pH 7.3, 150 mM NaCl, 0.5 mM TCEP, 30 min room temperature, 0.5 uM nucleosome or DNA, FRET: 20 mM HEPES pH 7.1, 100 mM NaCl. For orientation: A gel shift assay detects complexes by their altered migration in electrophoresis.

Consider “PU.1 ETS (^ETSPU.1, residue 165–272) (from UniProt P17433 165-272) (domain or fragment)”, for which the fold reduction of the binding affinity against ^ETSPU.1 on the nucleosome with wild-type H2A in series [1] is 3 fold.

In the case of “PU.1, full-length, wild type (from UniProt P17433 1-272) (natural protein)”, the Kd in series [2] came out at 650 nM.

In turn, “TAGGTGCAGGGCCTCTCGGCTGCTGATCTTCAGCTGGTTGCTGAGAGTTGCAGCATTGCTGAGTCTTAGCAATGGATACTTCCCGATTCCCCTCACAAAAATAGGTCAGTCTGTCTGGCTAGTTCTGTACTTGCAGACACAGGGCATGTGGGGTTCCTATTT (double strand) [162 bp CX3CR1 nucleosome]” registered a Kd with PU.1 full-length (mouse) of 650 nM.
